{
  "source": "patent US7217511B2",
  "about": "“Methods of increasing antibiotic production in Streptomyces by deletion of the scbA gene” (Plant Bioscience Limited, priority 2000, dated 2007)",
  "test_system": "ScbR",
  "assay": "Gel retardation assay: ScbR binding to the scbA/scbR promoter fragment",
  "settings": "1 μg (or equivalent amount) added; JM101/pIJ6120 crude extract; labelled scbA/scbR promoter fragment",
  "data": [
    {"substance": "virginiae butanolides", "values": [
      {"measurement": "Formation of the DNA-protein complex (DNA-binding activity of ScbR)", "value": "failed to inhibit"}
    ]}
  ]
}
